Measured values as given in publication PMC8600089, “The development of a high-affinity conformation-sensitive antibody mimetic using a biocompatible copolymer carrier (iBody)” (The Journal of Biological Chemistry, 2021).

Test system: biotinylated recombinant extracellular part of PSMA
Details: 2-PMPA 12.5 μM, n = 4

Structure (SMILES): O=C(O)CCC(CP(=O)(O)O)C(=O)O (stereo not shown) [2-PMPA, 2-(phosphonomethyl)pentane-1,5-dioic acid]
- competition with binding of Phage1-TBMB to PSMA, phage ELISA (in words): competed out the binding of Phage1
